Test system: Synoviocytes derived from a rheumatoid arthritis patient
Experiment: Growth of synoviocytes measured by MTT assay
Assay type: cell-based, human
Conditions: Herceptin 0.01, 0.1 and 1 μg/ml, 7 days culture, FIG. 3
Experimental: Synoviocytes were prepared from the diseased part of a rheumatoid arthritis patient according to the method described in Biochem. Biophys. Res. Com., 210, 1066-75 (1995). That is, synoviocytes obtained from a rheumatoid arthritis patient by surgery were minced, followed by enzyme treatment in RPMI1640 medium containing collagenase (4 mg/ml) at 37° C. for 4 hours to loosen the cells. The obtained cells were cultured in a growth medium (RPMI1640 containing 10% fetal calf serum) in a humidified CO2 incubator (5% CO2), with replacement of the growth medium at intervals of 3 to 4 days. […]
Participation of c-erbB-2 expressed in synoviocytes in the growth of synoviocytes was clarified by inhibition of phosphorylation of c-erbB-2 in the following manner. The growth of synoviocytes was measured by the assay using MTT [3,(4,5-dimethylthiazol-2-yl)2,5-diphenyl-tetrazolium bromide] […]
Synoviocytes derived from a rheumatoid arthritis patient which were prepared in the same manner as in Example 1 were seeded on a 96-well microplate in an amount of 5×10^3 cells/well and precultured in the growth medium at 37° C. overnight. […] Then, 100 μl of dimethyl sulfoxide was added to dissolve the fomazan complex and the absorbance at the wavelength of 590 nm was measured with 96-well multiscanner Immno-Mini (Japan Inter Med) as the degree of cell growth. […]

Substance: Herceptin: anti-c-erbB-2 monoclonal antibody (Genentech Inc.) considered to specifically inhibit the activation of c-erbB-2
- growth of synoviocytes (absorbance at 590 nm, MTT): inhibited in a manner dependent on the Herceptin concentration

Reference: patent US20060188501A1, “Diagnostic and therapeutic agents for rheumatoid arthritis” (Kyowa Hakko Kogyo Co., Ltd., priority 2000, published 2006)
